Laboratory results published in patent US12162901B2, “N-acetylated sialic acids and related sialosides” (priority 2016, dated 2024).
Where “and” joins values, the source holds several entries; their conditions need not be identical. Equal values may be shown once.

What was measured:
Assay in all cases: purified protein, by the assay type
Details in all cases: other: SpNanC, apparent, MES buffer pH 6.5, 37° C., 10 min
[1] = system: CC(=O)NC[C@@H](O)[C@@H](O)[C@@H]1O[C@@](O[C@H]2[C@@H](O)[C@@H](CO)O[C@@H](Oc3ccc([N+](=O)[O-])cc3)[C@@H]2O)(C(=O)O)C[C@H](O)[C@H]1NC(C)=O
[2] = system: CC(=O)N[C@H]1[C@H]([C@H](O)[C@H](O)CO)O[C@@](O[C@H]2[C@@H](O)[C@@H](CO)O[C@@H](Oc3ccc([N+](=O)[O-])cc3)[C@@H]2O)(C(=O)O)C[C@@H]1O
[3] = system: CC(=O)N[C@H]1[C@H]([C@H](O)[C@H](O)COC(C)=O)O[C@@](O[C@H]2[C@@H](O)[C@@H](CO)O[C@@H](Oc3ccc([N+](=O)[O-])cc3)[C@@H]2O)(C(=O)O)C[C@@H]1O

SpNanC (Streptococcus pneumoniae TIGR4)
Km [1]: 2600 ± 400 µM
kcat/Km [1]: 130000 M⁻¹ s⁻¹
Km [2]: 2660 ± 300 µM
kcat/Km [2]: 130000 M⁻¹ s⁻¹ and 137000 M⁻¹ s⁻¹
Km [3]: 1250 ± 200 µM
kcat/Km [3]: 302000 M⁻¹ s⁻¹
